Among the data in US20190071493A1 (SCHOLAR ROCK, published 2019) are KD values, retold here.

The chains behind the UniProt entries cited, without tags or fusion partners. Residues count along the entry.
UniProt G3XA59, 18-628 limits assumed, chain 1 of 2: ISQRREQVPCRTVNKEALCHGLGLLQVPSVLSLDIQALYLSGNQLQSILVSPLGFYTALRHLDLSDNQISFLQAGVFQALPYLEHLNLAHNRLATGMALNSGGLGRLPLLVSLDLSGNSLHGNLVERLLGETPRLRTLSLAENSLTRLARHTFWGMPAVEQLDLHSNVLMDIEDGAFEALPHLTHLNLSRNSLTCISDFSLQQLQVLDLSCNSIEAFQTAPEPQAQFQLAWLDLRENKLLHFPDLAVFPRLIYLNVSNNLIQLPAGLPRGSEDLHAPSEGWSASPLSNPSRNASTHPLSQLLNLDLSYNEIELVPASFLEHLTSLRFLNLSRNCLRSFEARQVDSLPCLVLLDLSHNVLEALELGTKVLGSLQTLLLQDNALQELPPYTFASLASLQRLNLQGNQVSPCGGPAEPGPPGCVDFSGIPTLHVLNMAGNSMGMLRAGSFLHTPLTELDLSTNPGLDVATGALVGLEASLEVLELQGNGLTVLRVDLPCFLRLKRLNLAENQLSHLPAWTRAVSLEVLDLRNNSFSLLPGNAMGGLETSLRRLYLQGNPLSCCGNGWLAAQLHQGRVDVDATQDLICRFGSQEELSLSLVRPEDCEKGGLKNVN
mouse GARP-proTGFβ1 complex, UniProt P04202, 30-390 limits assumed, chain 2 of 2: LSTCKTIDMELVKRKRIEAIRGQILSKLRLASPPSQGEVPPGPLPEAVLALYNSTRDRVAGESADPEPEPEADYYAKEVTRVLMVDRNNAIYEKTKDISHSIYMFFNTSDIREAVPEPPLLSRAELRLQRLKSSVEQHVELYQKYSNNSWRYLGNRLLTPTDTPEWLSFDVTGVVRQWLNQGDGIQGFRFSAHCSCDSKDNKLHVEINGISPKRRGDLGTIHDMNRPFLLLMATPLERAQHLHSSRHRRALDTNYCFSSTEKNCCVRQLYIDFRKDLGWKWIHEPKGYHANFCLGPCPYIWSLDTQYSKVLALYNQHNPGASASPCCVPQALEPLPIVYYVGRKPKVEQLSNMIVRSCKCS
UniProt Q14392, 18-627 limits assumed, chain 1 of 2: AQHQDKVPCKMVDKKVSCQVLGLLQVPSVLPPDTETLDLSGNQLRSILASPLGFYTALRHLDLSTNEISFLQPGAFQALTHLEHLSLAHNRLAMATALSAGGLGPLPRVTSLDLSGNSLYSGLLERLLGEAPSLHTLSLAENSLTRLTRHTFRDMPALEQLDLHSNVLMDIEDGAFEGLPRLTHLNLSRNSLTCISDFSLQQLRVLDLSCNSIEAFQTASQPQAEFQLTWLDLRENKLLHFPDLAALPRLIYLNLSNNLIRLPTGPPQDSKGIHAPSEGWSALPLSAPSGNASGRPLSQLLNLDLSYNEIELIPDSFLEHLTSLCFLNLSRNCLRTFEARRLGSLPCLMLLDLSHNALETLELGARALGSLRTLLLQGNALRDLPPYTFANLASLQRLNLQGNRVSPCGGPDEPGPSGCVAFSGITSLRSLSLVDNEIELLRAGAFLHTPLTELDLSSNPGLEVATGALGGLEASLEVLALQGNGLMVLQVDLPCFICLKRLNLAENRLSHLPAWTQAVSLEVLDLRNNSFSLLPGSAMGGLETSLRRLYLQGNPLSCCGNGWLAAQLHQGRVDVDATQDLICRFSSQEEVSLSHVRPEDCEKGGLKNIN
cynomolgus GARP-proTGFβ1 complex, UniProt P01137, 30-390 R228K: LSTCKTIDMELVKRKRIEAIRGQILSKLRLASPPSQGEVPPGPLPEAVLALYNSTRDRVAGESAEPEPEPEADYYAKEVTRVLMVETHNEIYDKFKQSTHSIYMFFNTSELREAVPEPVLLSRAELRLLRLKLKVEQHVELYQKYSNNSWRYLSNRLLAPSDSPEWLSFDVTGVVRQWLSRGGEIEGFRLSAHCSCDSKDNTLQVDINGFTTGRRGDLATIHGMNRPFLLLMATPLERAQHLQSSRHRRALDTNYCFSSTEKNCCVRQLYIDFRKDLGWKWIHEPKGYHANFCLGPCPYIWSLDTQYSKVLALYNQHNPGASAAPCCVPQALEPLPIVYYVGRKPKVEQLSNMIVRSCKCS
human GARP-proTGFβ1 complex, UniProt P01137, 30-390 limits assumed, chain 2 of 2: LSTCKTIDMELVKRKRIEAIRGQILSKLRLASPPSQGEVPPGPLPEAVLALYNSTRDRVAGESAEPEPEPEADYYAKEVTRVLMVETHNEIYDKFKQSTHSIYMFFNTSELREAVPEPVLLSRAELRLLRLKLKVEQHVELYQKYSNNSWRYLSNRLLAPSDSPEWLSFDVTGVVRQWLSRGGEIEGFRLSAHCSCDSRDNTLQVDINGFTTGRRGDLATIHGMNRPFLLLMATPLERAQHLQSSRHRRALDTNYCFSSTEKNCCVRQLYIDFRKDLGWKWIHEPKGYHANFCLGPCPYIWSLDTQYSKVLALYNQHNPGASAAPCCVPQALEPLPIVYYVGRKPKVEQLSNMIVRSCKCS

The target in assay [1] is T1, mouse GARP-proTGFβ1 complex (mouse, UniProt G3XA59 18-628; P04202 30-390).
T1 construct: also called muGARP-proTGFβ1
Description: species cross-reactivity screen; legend: ++ KD 1-10 nM.

Assay [2] concerns the target T2, cynomolgus GARP-proTGFβ1 complex (cynomolgus).
T2 construct: also called cyGARP-proTGFβ1
Description: species cross-reactivity screen; legend: +++ KD < 1 nM.

Assay [3] deals with T3, human GARP-proTGFβ1 complex (human, UniProt Q14392 18-627; P01137 30-390, biotinylated (Octet protocol)).
T3 construct: Purified complex; the Octet protocol names biotinylated sGARP-proTGFβ1; also called huGARP-proTGFβ1; sGARP-proTGFβ1
The description is as above.

B1: Ab1 (antibody, human IgG4 S228P, lambda, V domains shown)
VH: EVQLVESGGGLVQPGRSLRLSCAASGFTFSSYGMHWVRQAPGKGLEWVAVISYDGSNKYYADSVKGRFTISRDNSKNTLYLQMNSLRAEDTAVYYCARDIRPYGDYSAAFDIWGQGTLVTVSS
VL: NFMLTQPHSVSESPGKTVTISCTGSSGSIASNYVQWYQQRPGSAPSIVIFEDNQRPSGAPDRFSGSIDSSSNSASLTISGLKTEDEADYYCQSYDSSNHGGVFGGGTQLTVLG
notes: also called antibody Ab1; clone Ab1
For orientation: KD means the equilibrium constant for the complex coming apart. With B1, the KD in assay [1] is 1 to 10 nM; in assay [2], less than 1 nM.

B2: Ab2 (antibody, V domains shown)
VH: EVQLVQSGAEMKKPGESLKISCKGSGYNFASDWIGWVRQTPGKGLEWMGVIYPGDSDTRYSASFQGQVTISADKSINTAYLQWSSLKASDTAMYYCASAAGIAAAGHVTAFDIWGQGTMVTVSS
VL: not shown
notes: also called antibody Ab2; clone Ab2
Turning to B2, the dissociation constant (KD) in assay [3] and in assay [2] was less than 1 nM each time.
